Permeability data for macrocyclic peptides

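The data file gives no further conditions (lipid, pH, time, direction or concentration), and values from different papers need not be comparable. The list need not hold all peptides of the study. Entries at the database's floor value (log10 P of -10) are not listed.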

PAMPA is the parallel artificial membrane permeability assay, which has no cells and reads passive diffusion.
P is given in units of 10^-6 cm/s (from log10 values with two decimals); larger means faster passage.

structure (SMILES),PAMPA (10^-6 cm/s)
CC(=O)N1CCC[C@H]1C(=O)N(C)[C@@H](CC(C)C)C(=O)N[C@@H]1C(=O)N[C@@H](CC(C)C)C(=O)N(C)[C@@H](CC(C)C)C(=O)N(C)[C@@H](CC(C)C)C(=O)N(C)[C@@H](C)C(=O)N[C@@H](CC(C)C)C(=O)N2CCC[C@@H]2C(=O)O[C@@H]1C,1.8
CC(=O)N1CCC[C@H]1C(=O)N(C)[C@@H](CC(C)C)C(=O)N[C@@H]1C(=O)N[C@H](CC(C)C)C(=O)N[C@H](CC(C)C)C(=O)N[C@@H](CC(C)C)C(=O)N[C@@H](C)C(=O)N[C@H](CC(C)C)C(=O)N2CCC[C@@H]2C(=O)O[C@@H]1C,0.051
CC(=O)N1CCC[C@H]1C(=O)N(C)[C@H](CC(C)C)C(=O)N[C@@H]1C(=O)N(C)[C@@H](CC(C)C)C(=O)N(C)[C@@H](CC(C)C)C(=O)N[C@@H](CC(C)C)C(=O)N[C@@H](C)C(=O)N[C@H](CC(C)C)C(=O)N2CCC[C@H]2C(=O)O[C@@H]1C,0.19
CC(=O)N1CCC[C@@H]1C(=O)N(C)[C@@H](CC(C)C)C(=O)N[C@@H]1C(=O)N[C@H](CC(C)C)C(=O)N(C)[C@@H](CC(C)C)C(=O)N[C@H](CC(C)C)C(=O)N[C@@H](C)C(=O)N[C@H](CC(C)C)C(=O)N2CCC[C@@H]2C(=O)O[C@@H]1C,1.1
CC(=O)N1CCC[C@@H]1C(=O)N(C)[C@@H](CC(C)C)C(=O)N[C@@H]1C(=O)N[C@H](CC(C)C)C(=O)N[C@H](CC(C)C)C(=O)N(C)[C@@H](CC(C)C)C(=O)N(C)[C@@H](C)C(=O)N[C@@H](CC(C)C)C(=O)N2CCC[C@@H]2C(=O)O[C@@H]1C,2.6
CC(=O)N1CCC[C@H]1C(=O)N(C)[C@H](CC(C)C)C(=O)N[C@@H]1C(=O)N[C@H](CC(C)C)C(=O)N[C@@H](CC(C)C)C(=O)N[C@@H](CC(C)C)C(=O)N(C)[C@@H](C)C(=O)N[C@@H](CC(C)C)C(=O)N2CCC[C@@H]2C(=O)O[C@@H]1C,3.6
CC(=O)N1CCC[C@@H]1C(=O)N(C)[C@@H](CC(C)C)C(=O)N[C@@H]1C(=O)N[C@@H](CC(C)C)C(=O)N[C@H](CC(C)C)C(=O)N(C)[C@H](CC(C)C)C(=O)N(C)[C@H](C)C(=O)N[C@@H](CC(C)C)C(=O)N2CCC[C@H]2C(=O)O[C@@H]1C,1.9
CC(=O)N1CCC[C@@H]1C(=O)N(C)[C@@H](CC(C)C)C(=O)N[C@@H]1C(=O)N[C@@H](CC(C)C)C(=O)N[C@H](CC(C)C)C(=O)N[C@@H](CC(C)C)C(=O)N(C)[C@H](C)C(=O)N[C@@H](CC(C)C)C(=O)N2CCC[C@@H]2C(=O)O[C@@H]1C,0.68
CC(=O)N1CCC[C@@H]1C(=O)N(C)[C@H](CC(C)C)C(=O)N[C@@H]1C(=O)N[C@@H](CC(C)C)C(=O)N[C@H](CC(C)C)C(=O)N[C@H](CC(C)C)C(=O)N(C)[C@H](C)C(=O)N[C@H](CC(C)C)C(=O)N2CCC[C@H]2C(=O)O[C@@H]1C,0.066
CC(=O)N1CCC[C@H]1C(=O)N(C)[C@@H](CC(C)C)C(=O)N[C@@H]1C(=O)N[C@H](CC(C)C)C(=O)N[C@H](CC(C)C)C(=O)N(C)[C@H](CC(C)C)C(=O)N[C@H](C)C(=O)N[C@H](CC(C)C)C(=O)N2CCC[C@@H]2C(=O)O[C@@H]1C,0.14
CC(=O)N1CCC[C@H]1C(=O)N(C)[C@@H](CC(C)C)C(=O)N[C@@H]1C(=O)N(C)[C@H](CC(C)C)C(=O)N(C)[C@H](CC(C)C)C(=O)N[C@H](CC(C)C)C(=O)N(C)[C@H](C)C(=O)N[C@@H](CC(C)C)C(=O)N2CCC[C@@H]2C(=O)O[C@@H]1C,8.3
CC(=O)N1CCC[C@H]1C(=O)N(C)[C@@H](CC(C)C)C(=O)N[C@@H]1C(=O)N[C@H](CC(C)C)C(=O)N(C)[C@H](CC(C)C)C(=O)N[C@H](CC(C)C)C(=O)N(C)[C@H](C)C(=O)N[C@@H](CC(C)C)C(=O)N2CCC[C@@H]2C(=O)O[C@@H]1C,5.1
CC(=O)N1CCC[C@H]1C(=O)N(C)[C@@H](CC(C)C)C(=O)N[C@@H]1C(=O)N(C)[C@H](CC(C)C)C(=O)N(C)[C@@H](CC(C)C)C(=O)N(C)[C@@H](CC(C)C)C(=O)N(C)[C@H](C)C(=O)N[C@@H](CC(C)C)C(=O)N2CCC[C@@H]2C(=O)O[C@@H]1C,5.1
CC(=O)N1CCC[C@@H]1C(=O)N(C)[C@@H](CC(C)C)C(=O)N[C@@H]1C(=O)N(C)[C@H](CC(C)C)C(=O)N[C@@H](CC(C)C)C(=O)N(C)[C@H](CC(C)C)C(=O)N(C)[C@H](C)C(=O)N[C@@H](CC(C)C)C(=O)N2CCC[C@@H]2C(=O)O[C@@H]1C,2.1
CC(=O)N1CCC[C@H]1C(=O)N(C)[C@H](CC(C)C)C(=O)N[C@@H]1C(=O)N(C)[C@@H](CC(C)C)C(=O)N(C)[C@H](CC(C)C)C(=O)N[C@H](CC(C)C)C(=O)N(C)[C@@H](C)C(=O)N[C@@H](CC(C)C)C(=O)N2CCC[C@H]2C(=O)O[C@@H]1C,1.9
CC(=O)N1CCC[C@H]1C(=O)N(C)[C@H](CC(C)C)C(=O)N[C@@H]1C(=O)N[C@@H](CC(C)C)C(=O)N(C)[C@@H](CC(C)C)C(=O)N(C)[C@H](CC(C)C)C(=O)N(C)[C@@H](C)C(=O)N[C@@H](CC(C)C)C(=O)N2CCC[C@@H]2C(=O)O[C@@H]1C,4.8
CC(=O)N1CCC[C@H]1C(=O)N(C)[C@@H](CC(C)C)C(=O)N[C@@H]1C(=O)N(C)[C@@H](CC(C)C)C(=O)N(C)[C@H](CC(C)C)C(=O)N(C)[C@H](CC(C)C)C(=O)N(C)[C@@H](C)C(=O)N[C@@H](CC(C)C)C(=O)N2CCC[C@@H]2C(=O)O[C@@H]1C,1.2
CC(=O)N1CCC[C@H]1C(=O)N(C)[C@H](CC(C)C)C(=O)N[C@@H]1C(=O)N[C@H](CC(C)C)C(=O)N[C@H](CC(C)C)C(=O)N[C@H](CC(C)C)C(=O)N(C)[C@H](C)C(=O)N[C@@H](CC(C)C)C(=O)N2CCC[C@@H]2C(=O)O[C@@H]1C,1.9
CC(=O)N1CCC[C@H]1C(=O)N(C)[C@@H](CC(C)C)C(=O)N[C@@H]1C(=O)N(C)[C@@H](CC(C)C)C(=O)N(C)[C@H](CC(C)C)C(=O)N(C)[C@H](CC(C)C)C(=O)N[C@H](C)C(=O)N[C@@H](CC(C)C)C(=O)N2CCC[C@@H]2C(=O)O[C@@H]1C,7.8
CC(=O)N1CCC[C@H]1C(=O)N(C)[C@@H](CC(C)C)C(=O)N[C@@H]1C(=O)N[C@H](CC(C)C)C(=O)N[C@@H](CC(C)C)C(=O)N(C)[C@H](CC(C)C)C(=O)N(C)[C@@H](C)C(=O)N[C@H](CC(C)C)C(=O)N2CCC[C@@H]2C(=O)O[C@@H]1C,4
CC(=O)N1CCC[C@@H]1C(=O)N(C)[C@H](CC(C)C)C(=O)N[C@@H]1C(=O)N[C@H](CC(C)C)C(=O)N[C@@H](CC(C)C)C(=O)N[C@H](CC(C)C)C(=O)N(C)[C@H](C)C(=O)N[C@H](CC(C)C)C(=O)N2CCC[C@@H]2C(=O)O[C@@H]1C,0.74
CC(=O)N1CCC[C@@H]1C(=O)N(C)[C@H](CC(C)C)C(=O)N[C@@H]1C(=O)N(C)[C@@H](CC(C)C)C(=O)N[C@@H](CC(C)C)C(=O)N(C)[C@@H](CC(C)C)C(=O)N(C)[C@H](C)C(=O)N[C@@H](CC(C)C)C(=O)N2CCC[C@H]2C(=O)O[C@@H]1C,3.5
CC(=O)N1CCC[C@H]1C(=O)N[C@@H]1C(=O)N[C@H](CC(C)C)C(=O)N[C@@H](CC(C)C)C(=O)N[C@@H](CC(C)C)C(=O)N(C)[C@H](CC(C)C)C(=O)N(C)[C@@H](C)C(=O)N[C@@H](CC(C)C)C(=O)N2CCC[C@@H]2C(=O)O[C@@H]1C,2.6

Values of Kelly et al. 2021, doi:10.1021/jacs.0c06115, as listed in CycPeptMPDB.